# Assay results taken from US10864279B2, “Linker-drug and antibody-drug conjugate (ADC) employing the same” (priority 2016, dated 2020).
# Assays:
# [1] = test system: HER2 moderate-expressing breast cancer cell lines JIMT-1 with anti-Herceptin drug resistance; assay: Potency test, CCK-8 cell viability, JIMT-1; format: cell-based
# Method: (§1) Cells were seeded in Corning CellBIND 96-well plates at densities of 6×10^3 cells/well. After incubation overnight at 37° C., 5% CO2 incubator, different concentrations of ADCs were added to the cells in serial dilutions. The cells were then incubated for 72-120 hours at 37° C., 5% CO2 incubator. After 72-120 hours, the old medium was removed and the cells were rinsed once and treated with 10-fold diluted CCK-8 reagent at 37° C. for 4 hours. The 96-well plates were put in the ELISA reader to measure the absorbance wavelength at 450 nm. Cell viability was calculated by the following equation: Cell Viability (%)=(Intensity of sample/Intensity of control)×100%. IC50 values of the ADC samples were calculated using SigmaPlot software.
# [2] = test system: HER2 high-expressing breast cancer cell lines BT-474; assay: Potency test, CCK-8 cell viability, BT-474; format: cell-based; details: HER2 expression 3+; 72-120 hours; Table 3
# Method: as §1
# [3] = test system: HER2-negative cell lines MDA-MB-468; assay: Potency test, CCK-8 cell viability, MDA-MB-468; format: cell-based; details: for toxicity in MDA-MB-468 compared with commercial Kadcyla: HER2-negative cells, in words; for IC50: HER2 expression negative, 72-120 hours, Table 4
# Method: as §1
# [4] = test system: breast cancer cell lines BT-474 (subcutaneous xenograft); assay: Tumor growth inhibition test: BT-474 xenograft model; format: in vivo, NODSCID mice; details: in words
# Method: The length and width of the tumor were measured and the tumor size was calculated by (length×width×width×½) (mm^3) and recorded.
# [5] = Body weight and clinical symptoms, EC PDX model; format: in vivo, NODSCID mice; details: in words
# Method: (§2) Endometrial cancer tumor tissue obtained from National Taiwan University was confirmed to be HER2-positive (+1). Tumor (2-3 mm diameter) was subcutaneous implanted to NODSCID mice to test the drug efficacy of ADCs in vivo. When the average tumor size was about 100 mm^3, mice were divided into groups and ADCs were intravenously injected (10 mL/kg B.W. injection volume).
# [6] = test system: Endometrial cancer tumor tissue, HER2-positive (+1); assay: Tumor growth inhibition test: EC PDX model; format: in vivo, NODSCID mice; details: in words
# Method: as §2
substance,measurement,setting,value
Herceptin-Linker-drug 2,IC50,"[1]; HER2 expression 2+ resistant, 72-120 hours, Table 3",~500 nM
Herceptin-Linker-drug 3,IC50,[2],0.35 nM
same,toxicity in MDA-MB-468 compared with commercial Kadcyla,[3],significantly lower than that of commercial Kadcyla
Herceptin-Linker-drug 8,tumor growth after 60 days of treatment,[4]; 2.5 mg/kg,significantly inhibited
same,tumor growth after 60 days of treatment,[4]; 5 mg/kg,significantly inhibited
Herceptin-Linker-drug 11,recovery of abnormal clinical symptoms,[5]; 5 mg/kg,recovered after one week
same,recovery of abnormal clinical symptoms,[5]; 10 mg/kg,recovered after one week
same,IC50,[2],0.28 nM
same,cell toxicity in JIMT-1 compared with other ADCs,"[1]; FIG. 18C, in words",superior to the cell toxicity of other ADCs
same,tumor growth after 12 days of treatment,[6]; 5 mg/kg,significantly inhibited
same,tumor growth after 12 days of treatment,[6]; 10 mg/kg,significantly inhibited
Herceptin-Linker-drug 14,toxicity in MDA-MB-468 compared with commercial Kadcyla,[3],significantly lower than that of commercial Kadcyla
same,IC50,[3],154 nM
Herceptin-Linker-drug 16,toxicity in MDA-MB-468 compared with commercial Kadcyla,[3],significantly lower than that of commercial Kadcyla
same,IC50,[3],38.7 nM
